# According to patent US9675617B2, “Tetrahydrofolates in combination with EGFR-inhibitors” (ISOFOL MEDICAL AB, priority 2012, dated 2017):
# Experiments:
# LoVo tumor cells = assay: Anti-tumoral efficacy in the colorectal adenocarcinoma xenograft model LoVo; type: in vivo, NCr nu/nu mice
# Procedure: Purpose: To determine the anti-tumoral efficacy of methylene-THF in combination with cetuximab in the colorectal adenocarcinoma xenograft model LoVo.
# (§1) Study Design: A total of 50 female NCr nu/nu mice (10 per group) at the age of 8-12 weeks were injected with 1×10^7 LoVo tumor cells in 50% Matrigel sc in flank. After seven days they were administered intraperitoneal injections according to the schedule in table 2. Animals were monitored individually. The endpoint of the experiment was a tumor weight of 1000 mm^3 or 75 days, whichever came first. Responders could be followed longer. When the endpoint was reached, the animals were euthanized. Body weight (g) and tumor volume (mm^3) was measured on days 1, 2, 3, 4, 5, 7, 11, 14, 18, 21, 25, 28, 32, 35, 39, 42, 46, 49, 53, 56, 60, 63, 67, 70 and 74.
# [1] = Body weight and deaths (side effects) in the LoVo xenograft study; type: in vivo, NCr nu/nu mice
# Procedure: as §1
substance,measurement,setting,value
cetuximab [Group 2],No of TP,"LoVo tumor cells; LoVo sc xenograft, 10 mice per group, ip dosing per Table 2, TP not defined",8
same,"Median tumor volume over time (FIG. 2), in words","LoVo tumor cells; LoVo xenograft, days 1-74",least favorable development
same,Median Time to Endpoint,"LoVo tumor cells; endpoint: tumor weight of 1000 mm^3 or 75 days, whichever came first",56.7 days
same,Percent tumor growth delay (TGD),LoVo tumor cells; versus vehicle group 1,122%
same,No of treatment related deaths,"[1]; 10 mice per group, ip dosing per Table 2",0
same,"Development of median body weight over time (FIG. 4), in words","[1]; mouse, in vivo",weight increase better than the other groups including vehicle
